In general, IC50 refers to the concentration at which inhibition is half-maximal.

Sequences of proteins named here, by UniProt entry; tags and fusion partners are left off. Residues count along the entry.
UniProt P03372, 307-554: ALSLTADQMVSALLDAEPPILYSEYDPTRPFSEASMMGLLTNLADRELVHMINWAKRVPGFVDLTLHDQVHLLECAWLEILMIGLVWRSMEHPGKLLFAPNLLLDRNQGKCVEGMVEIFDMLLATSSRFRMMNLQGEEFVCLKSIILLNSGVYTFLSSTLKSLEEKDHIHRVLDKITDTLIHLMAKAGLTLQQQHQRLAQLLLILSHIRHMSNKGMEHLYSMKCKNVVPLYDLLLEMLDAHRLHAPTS

Molecules are shown by their SMILES.

For this assay, the target named is recombinant human Estrogen Receptor alpha ligand binding domain (ER alpha-LBD (GST)) (Homo sapiens (Human), UniProt P03372). Put plainly: ERα binding assay (LanthaScreen TR-FRET competition). The note with it: read-out: ER binding IC50 value; competitive displacement of Fluormone ES2 tracer, 4 hours room temperature. For orientation: Time-resolved FRET reads energy transfer from a long-lived donor to a nearby acceptor.
With `COCC(C)(F)CN1[C@H](c2ccc(OCCN3CC(CF)C3)cc2OC)c2ccc3[nH]ncc3c2C[C@H]1C` (single isomer, unassigned) [Example 16], the IC50 is 4.1 nM.
In the case of `COCC(C)(F)CN1[C@H](c2ccc(OCCN3CC(CF)C3)cc2OC)c2ccc3[nH]ncc3c2C[C@H]1C` (single isomer, unassigned) [Example 17], the IC50 turned out to be 9.7 nM.
Under `COc1cc(OCCN2CC(CF)C2)ccc1[C@@H]1c2ccc3[nH]ncc3c2C[C@@H](C)N1CC(C)(F)CF` (single isomer, unassigned) [Example 20] stands 1.1 nM; under `COc1cc(OCCN2CC(CF)C2)ccc1[C@@H]1c2ccc3[nH]ncc3c2C[C@@H](C)N1CC(C)(F)CF` (single isomer, unassigned) [Example 21], 2 nM.
As for `C[C@@H]1Cc2c(ccc3[nH]ncc23)[C@@H](c2c(F)cc(OCCN3CC(CF)C3)cc2F)N1CC(F)CF` (single isomer, unassigned) [Example 34], the IC50 was 3.8 nM.
Take `C[C@@H]1Cc2c(ccc3[nH]ncc23)[C@@H](c2c(F)cc(OCCN3CC(CF)C3)cc2F)N1CC(F)CF` (single isomer, unassigned) [Example 35]: the IC50 turned out to be 2.7 nM.
For `C[C@@H]1Cc2c(ccc3[nH]ncc23)[C@@H](c2c(F)cc(OCCN3CC(CF)C3)cc2F)N1CC(C)(C)F` [Example 1, (6S,8R)-6-(2,6-difluoro-4-(2-(3-(fluoromethyl)azetidin-1-yl)ethoxy)phenyl)-7-(2-fluoro-2-methylpropyl)-8-methyl-6,7,8,9-tetrahydro-3H-pyrazolo[4,3-f]isoquinoline], the IC50 was determined as 1.2 nM.
Take `C[C@@H]1Cc2c(ccc3[nH]ncc23)[C@@](C)(c2c(F)cc(OCCN3CC(CF)C3)cc2F)N1CC(C)(C)F` [Example 2, (6S,8R)-6-(2,6-difluoro-4-(2-(3-(fluoromethyl)azetidin-1-yl)ethoxy)phenyl)-7-(2-fluoro-2-methylpropyl)-6,8-dimethyl-6,7,8,9-tetrahydro-3H-pyrazolo[4,3-f]isoquinoline]: the IC50 stood at 1.5 nM.
For `CC(C)(F)CN1[C@H](c2c(F)cc(OCCN3CC(CF)C3)cc2F)c2ccc3[nH]ncc3c2C[C@H]1C(F)F` [Example 3, (6S,8S)-6-(2,6-difluoro-4-(2-(3-(fluoromethyl)azetidin-1-yl)ethoxy)phenyl)-8-(difluoromethyl)-7-(2-fluoro-2-methylpropyl)-6,7,8,9-tetrahydro-3H-pyrazolo[4,3-f]isoquinoline], the IC50 worked out at 0.52 nM.
`CC(C)(F)CN1[C@H](C(F)F)Cc2c(ccc3[nH]ncc23)[C@@]1(C)c1c(F)cc(OCCN2CC(CF)C2)cc1F` [Example 4, (6S,8S)-6-(2,6-difluoro-4-(2-(3-(fluoromethyl)azetidin-1-yl)ethoxy)phenyl)-8-(difluoromethyl)-7-(2-fluoro-2-methylpropyl)-6-methyl-6,7,8,9-tetrahydro-3H-pyrazolo[4,3-f]isoquinoline]: the IC50 came out at 0.5 nM.
Under `COc1cc(OCCN2CC(CF)C2)ccc1[C@@H]1c2ccc3[nH]ncc3c2C[C@@H](C)N1CC(C)(C)F` [Example 5, (6S,8R)-7-(2-fluoro-2-methylpropyl)-6-(4-(2-(3-(fluoromethyl)azetidin-1-yl)ethoxy)-2-methoxyphenyl)-8-methyl-6,7,8,9-tetrahydro-3H-pyrazolo[4,3-f]isoquinoline] stands 3.3 nM; under `COc1cc(OCCN2CC(CF)C2)ccc1[C@@H]1c2ccc3[nH]ncc3c2C[C@@H](C)N1CC1(F)CC1` [Example 6, (6S,8R)-7-((1-fluorocyclopropyl)methyl)-6-(4-(2-(3-(fluoromethyl)azetidin-1-yl)ethoxy)-2-methoxyphenyl)-8-methyl-6,7,8,9-tetrahydro-3H-pyrazolo[4,3-f]isoquinoline], 10 nM.
The figure for `COc1cc(OCCN2CC(CF)C2)ccc1[C@@H]1c2ccc3[nH]ncc3c2C[C@@H](C)N1CC(F)F` [Example 7, (6S,8R)-7-(2,2-difluoroethyl)-6-(4-(2-(3-(fluoromethyl)azetidin-1-yl)ethoxy)-2-methoxyphenyl)-8-methyl-6,7,8,9-tetrahydro-3H-pyrazolo[4,3-f]isoquinoline] is 2 nM; for `C[C@@H]1Cc2c(ccc3[nH]ncc23)[C@@H](c2ccc(OCCN3CC(CF)C3)cn2)N1CC1(F)CC1` [Example 8, (6S,8R)-7-((1-fluorocyclopropyl)methyl)-6-(5-(2-(3-(fluoromethyl)azetidin-1-yl)ethoxy)pyridin-2-yl)-8-methyl-6,7,8,9-tetrahydro-3H-pyrazolo[4,3-f]isoquinoline] it is 1.3 nM; for `COc1cc(OCCN2CC(CF)C2)ccc1[C@@H]1c2ccc3[nH]ncc3c2C[C@@H](C)N1CC(C)C` [Example 9, (6S,8R)-6-(4-(2-(3-(fluoromethyl)azetidin-1-yl)ethoxy)-2-methoxyphenyl)-7-isobutyl-8-methyl-6,7,8,9-tetrahydro-3H-pyrazolo[4,3-f]isoquinoline] it is 5.8 nM.
The figure for `COCC(F)(F)CN1[C@H](c2ccc(OCCN3CC(CF)C3)cn2)c2ccc3[nH]ncc3c2C[C@H]1C` [Example 10, (6S,8R)-7-(2,2-difluoro-3-methoxypropyl)-6-(5-(2-(3-(fluoromethyl)azetidin-1-yl)ethoxy)pyridin-2-yl)-8-methyl-6,7,8,9-tetrahydro-3H-pyrazolo[4,3-f]isoquinoline] is 7.9 nM; for `COc1cc(OCCN2CC(CF)C2)ccc1[C@@H]1c2ccc3[nH]ncc3c2C[C@@H](C)N1CC(C)(F)F` [Example 11, (6S,8R)-7-(2,2-difluoropropyl)-6-(4-(2-(3-(fluoromethyl)azetidin-1-yl)ethoxy)-2-methoxyphenyl)-8-methyl-6,7,8,9-tetrahydro-3H-pyrazolo[4,3-f]isoquinoline] it is 1.3 nM; for `COc1cc(OCCN2CC(CF)C2)ccc1[C@@H]1c2ccc3[nH]ncc3c2C[C@@H](C)N1CC(F)(F)F` [Example 12, (6S,8R)-6-(4-(2-(3-(fluoromethyl)azetidin-1-yl)ethoxy)-2-methoxyphenyl)-8-methyl-7-(2,2,2-trifluoroethyl)-6,7,8,9-tetrahydro-3H-pyrazolo[4,3-f]isoquinoline] it is 2.9 nM.
On to `COc1cc(OCCN2CC(CF)C2)ccc1[C@@H]1c2ccc3[nH]ncc3c2C[C@@H](C)N1CC1(F)COC1` [Example 13, (6S,8R)-6-(4-(2-(3-(fluoromethyl)azetidin-1-yl)ethoxy)-2-methoxyphenyl)-7-((3-fluorooxetan-3-yl)methyl)-8-methyl-6,7,8,9-tetrahydro-3H-pyrazolo[4,3-f]isoquinoline], for which the IC50 is 3.7 nM.
For the compound `COc1cc(OCCN2CC(CF)C2)ccc1[C@@H]1c2ccc3[nH]ncc3c2C[C@@H](C)N1CC(F)(F)CO` [Example 14, 2,2-difluoro-3-((6S,8R)-6-(4-(2-(3-(fluoromethyl)azetidin-1-yl)ethoxy)-2-methoxyphenyl)-8-methyl-3,6,8,9-tetrahydro-7H-pyrazolo[4,3-f]isoquinolin-7-yl)propan-1-ol], the IC50 was 3.5 nM.
Take `COCC(F)(F)CN1[C@H](c2ccc(OCCN3CC(CF)C3)cc2OC)c2ccc3[nH]ncc3c2C[C@H]1C` [Example 15, (6S,8R)-7-(2,2-difluoro-3-methoxypropyl)-6-(4-(2-(3-(fluoromethyl)azetidin-1-yl)ethoxy)-2-methoxyphenyl)-8-methyl-6,7,8,9-tetrahydro-3H-pyrazolo[4,3-f]isoquinoline]: the IC50 came out at 5.2 nM.
Regarding `COc1cc(OCCN2CC(CF)C2)ccc1[C@@H]1c2ccc3[nH]ncc3c2C[C@@H](C)N1CC(F)(F)CF` [Example 22, (6S,8R)-6-(4-(2-(3-(fluoromethyl)azetidin-1-yl)ethoxy)-2-methoxyphenyl)-8-methyl-7-(2,2,3-trifluoropropyl)-6,7,8,9-tetrahydro-3H-pyrazolo[4,3-f]isoquinoline], the IC50 amounted to 1.9 nM.
With `COc1cc(OCCN2CC(C)C2)ccc1[C@@H]1c2ccc3[nH]ncc3c2C[C@@H](C)N1CC(C)(C)F` [Example 23, (6S,8R)-7-(2-fluoro-2-methylpropyl)-6-(2-methoxy-4-(2-(3-methylazetidin-1-yl)ethoxy)phenyl)-8-methyl-6,7,8,9-tetrahydro-3H-pyrazolo[4,3-f]isoquinoline], the IC50 turned out to be 2.8 nM.
As to `COc1cc(OCCN2CC(OC)C2)ccc1[C@@H]1c2ccc3[nH]ncc3c2C[C@@H](C)N1CC(C)(C)F` [Example 24, (6S,8R)-7-(2-fluoro-2-methylpropyl)-6-(2-methoxy-4-(2-(3-methoxyazetidin-1-yl)ethoxy)phenyl)-8-methyl-6,7,8,9-tetrahydro-3H-pyrazolo[4,3-f]isoquinoline], the IC50 was found to be 3.7 nM.
Regarding `COc1cc(OCCN2CC(CF)C2)cc(F)c1[C@@H]1c2ccc3[nH]ncc3c2C[C@@H](C)N1CC(C)(F)F` [Example 25, (6S,8R)-7-(2,2-difluoropropyl)-6-(2-fluoro-4-(2-(3-(fluoromethyl)azetidin-1-yl)ethoxy)-6-methoxyphenyl)-8-methyl-6,7,8,9-tetrahydro-3H-pyrazolo[4,3-f]isoquinoline], the IC50 amounted to 1.3 nM.
For `COc1cc(OCCN2CC(CF)C2)cc(F)c1[C@@H]1c2ccc3[nH]ncc3c2C[C@@H](C)N1CC(F)(F)CO` [Example 26, 2,2-difluoro-3-((6S,8R)-6-(2-fluoro-4-(2-(3-(fluoromethyl)azetidin-1-yl)ethoxy)-6-methoxyphenyl)-8-methyl-8,9-dihydro-3H-pyrazolo[4,3-f]isoquinolin-7(6H)-yl)propan-1-ol], the IC50 was 3.8 nM.
The figure for `COc1cc(OCCN2CC(CF)C2)cc(F)c1[C@@H]1c2ccc3[nH]ncc3c2C[C@@H](C)N1CC(F)(F)CF` [Example 27, (6S,8R)-6-(2-fluoro-4-(2-(3-(fluoromethyl)azetidin-1-yl)ethoxy)-6-methoxyphenyl)-8-methyl-7-(2,2,3-trifluoropropyl)-6,7,8,9-tetrahydro-3H-pyrazolo[4,3-f]isoquinoline] is 2.6 nM; for `CC(C)CN1[C@H](c2ccc(OCCN3CC(CF)C3)cc2)c2ccc3[nH]ncc3c2C[C@H]1C` [Example 28, (6R,8R)-6-(4-(2-(3-(fluoromethyl)azetidin-1-yl)ethoxy)phenyl)-7-isobutyl-8-methyl-6,7,8,9-tetrahydro-3H-pyrazolo[4,3-f]isoquinoline] it is 1.9 nM.
